Results: US6686343B1, “Triazolopurine derivatives, pharmaceutical compositions containing the derivatives, and adenosine A3 receptor affinitive agents” (Otsuka Pharmaceutical Factory, Inc., priority 1999, dated 2004)
pIC50: −log10 of the molar value.

Target: adenosine A2 receptor (UniProt P30543)
Assay: Adenosine A2 receptor binding capacity
Settings: read-out: Receptor binding capacity (IC50) Adenosine A2
Method: The adenosine A2 receptor binding capacity of the test compound was measured according to the method described in Archives of Pharmacology, 336, 204 (1987) and The Journal of Pharmacology and Experimental Therapeutics, 251 (3), 888 (1989) and then evaluated as IC50.

O=C(O)CCc1nc2nc[nH]c2c2nc(-c3ccc(-c4ccccc4)cc3)nn12 [Example 32, 8-(4-biphenylyl)-5-(2-carboxyethyl)-1H-1,2,4-triazolo[5,1-i]purine]
pIC50: ≤ 5.00
